Experimental data reported in ChEMBL document CHEMBL4304818, “1,3,4-Oxadiazol-2-ylbenzenesulfonamides as privileged structures for the inhibition of monoamine oxidase B” (Bioorg Med Chem Lett, 2019).

Species: Homo sapiens
Experiment: Selectivity index, ratio of IC50 for human recombinant MAO-A expressed in insect cells microsomes to IC50 for human recombinant MAO-B expressed in insect cells microsomes
In short: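 Recombinant human MAO-A and MAO-B as enzyme sources with kynuramine as non-selective substrate; product 4-hydroxyquinoline read by fluorescence spectrophotometry. Activity measured across a range of inhibitor concentrations, sigmoidal rate vs log[inhibitor] curves fitted for IC50; triplicate measurements, mean ± SD. Top concentration tested 100 µM. SI taken as IC50(MAO-A)/IC50(MAO-B).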

`NS(=O)(=O)c1ccc(-c2nnc(-c3ccc(Cl)c(Cl)c3)o2)cc1` showed a Ratio IC50 of 17100.
